We go through 1 compound from US20150037269A1, “TOPICAL COMPOSITIONS FOR TREATMENT OF EXCESSIVE SWEATING AND METHODS OF USE THEREOF” (GlaxoSmithKline Intellectual Property Development Limited, priority 2013, published 2015).

The nature of this data set: Clinical study: single radiolabelled topical dose to axilla or palm of healthy male subjects. In kind it is in vivo, human. Conditions: average; range 2- to 33.6-fold. How it is done:
Up to four cohorts were to be enrolled (Cohort A: unoccluded axilla; Cohort B: occluded axilla; Cohort C: unoccluded palm; Cohort D: occluded palm). Six subjects were to be dosed in each cohort and complete the study procedures.
On the day of dosing, subjects will receive the study drug applied to the axilla or palm. Each subject will only receive a single dose of study drug which will be applied to the test site and remain on the application site for 8 hours. Serial blood samples will be collected throughout treatment. An interim analysis using simulations will be conducted after each cohort to determine the likelihood of exceeding the safety cover for Cmax or AUC and the likelihood of obtaining quantifiable concentrations sufficient to determine the half-life in the subsequent cohorts.

Take `OC(c1ccccc1)(c1ccccc1)C12CC[N+](CCOCc3ccccc3)(CC1)CC2` [umeclidinium, 4-[hydroxy(diphenyl)methyl]-1-{2-[(phenylmethyl)oxy]ethyl}-1-azoniabicyclo[2.2.2]octane]: the “ratio of Cmax in occluded axilla to unoccluded axilla” value is listed as 9.1 fold.
